{"sequences": {"note": "Amino acid sequences for entries named in this document (tags omitted).", "UniProt P27338, whole entry": "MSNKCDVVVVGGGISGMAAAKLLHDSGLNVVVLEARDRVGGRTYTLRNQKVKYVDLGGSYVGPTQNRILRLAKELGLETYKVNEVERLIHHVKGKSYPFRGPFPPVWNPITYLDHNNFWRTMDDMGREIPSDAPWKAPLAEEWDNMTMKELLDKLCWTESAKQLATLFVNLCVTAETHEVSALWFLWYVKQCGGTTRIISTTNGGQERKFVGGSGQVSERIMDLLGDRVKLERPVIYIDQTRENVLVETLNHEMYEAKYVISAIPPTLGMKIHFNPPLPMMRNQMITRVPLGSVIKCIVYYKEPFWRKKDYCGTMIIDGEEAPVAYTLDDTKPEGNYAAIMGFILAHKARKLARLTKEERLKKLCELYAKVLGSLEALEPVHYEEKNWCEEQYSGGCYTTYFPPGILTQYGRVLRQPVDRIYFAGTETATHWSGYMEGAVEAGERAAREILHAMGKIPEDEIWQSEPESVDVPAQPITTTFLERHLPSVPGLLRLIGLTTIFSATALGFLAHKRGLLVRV"}, "source": "ChEMBL document CHEMBL3297656", "about": "“New coumarin derivatives: design, synthesis and use as inhibitors of hMAO” (Bioorg Med Chem, 2014)", "target": "Amine oxidase [flavin-containing] B (Homo sapiens, UniProt P27338)", "assay": "Inhibition of human recombinant MAO-B assessed as H2O2 production using p-tyramine substrate by fluorimetric method"}
{"molecule": "CC(C)NC(=O)c1cc2ccccc2oc1=O", "values": [{"measurement": "IC50", "result": 10.5, "unit": "µM"}]}
